Numbering of substitutions follows the chain as printed.
B1: P1-047323 (antibody, IgG1, V domains shown)
VH: QVQLVQSGAEVKKPGSSVKVSCKASGGTFINSEAINWVRQAPGQGLEWMGGIIPIFDITNYAQKFQGRVTITADESMSTAYMELSSLRSEDTAVYYCAKTYYDILTYHYHYGMDVWGQGTTVTVSS
VL: AIQLTQSPSSLSASVGDRVTITCRASQGISSALAWYQQKPGKAPKLLIYDASSLESGVPSRFSGSGSGTDFTLTISSLQPEDFATYYCQQFNSYPITFGQGTRLEIK
B2: P1-047328 (antibody, IgG1, V domains shown)
VH: B1 VH
VL: B1 VL with F91Y
B3: P1-047320 (antibody, V domains shown)
VH: QVQLVQSGAEVKRPGSSVKVSCKASGGTFSIYVISWVRQAPGQGLEWMGGIIPLFGTPNYAQQFQDRVTITADESTRTAYMELNSLKSEDTAVYYCARGHGPGSSHYSYYGLDVWGQGTTVTVSS
VL: DIQMTQSPTSLSASVGDRVTITCRASQGISSWLAWYQHKPGKAPKSLIYAASSLQSGVPSRFSGSGSGTDFTLTISSLQPEDFATYYCQQYNSYPYTFGQGTKLEIK
B4: P1-047307 (antibody, V domains shown)
VH: B3 VH
VL: B3 VL with H38Q, G41E, Y96L, Q100G, L104V
B5: P1-047311 (antibody, IgG1, V domains shown)
VH: B3 VH with R13K, P58A
VL: B3 VL with H38Q, Y96L, Q100G, L104V
B6: P1-047312 (antibody, IgG1, V domains shown)
VH: B3 VH
VL: B3 VL with S46L
B7: P1-047313 (antibody, IgG1, V domains shown)
VH: B3 VH with Q63R, N84S, K87R
VL: B3 VL with S46L, Y96W, L104V
B8: P1-047318 (antibody, IgG1, V domains shown)
VH: B3 VH with N84S, K87R
VL: B3 VL with S46L
B9: P1-047319 (antibody, V domains shown)
VH: B3 VH with P58A, Q63K, D66G, R77N, N84S, K87R
VL: B3 VL
B10: P1-047294 (antibody, IgG1, V domains shown)
VH: QVQLVQSGAEVKKPGSSVKVSCKASGGTFNRHAISWVRQAPGQGLEWMGGIIPLFGTANYAQEFQGRVTIAADEPTSTTYMELRSLRSEDTAVYYCASSYFYGSGSSNYYYYGLDVWGQGTTVTVSS
VL: B3 VL with H38Q, G41E, S65G, Y96L, Q100G, L104V
B11: P1-047296 (antibody, V domains shown)
VH: B10 VH with E63K
VL: B3 VL with H38Q, G41E, Y96I, K103R
B12: P1-047297 (antibody, IgG1, V domains shown)
VH: B10 VH with E63K
VL: B3 VL with Y96L, Q100G, L104V
B13: P1-047300 (antibody, IgG1, V domains shown)
VH: B10 VH with E63K
VL: B3 VL with H38Q, G41E, Y49H, Y96L, Q100G, L104V
B14: P1-047302 (antibody, V domains shown)
VH: B10 VH with E63K
VL: B3 VL with H38Q, G41E, Y96L, Q100G, L104V
B15: P1-047310 (antibody, IgG1, V domains shown)
VH: QVQLVQSGAEVKKPGSSVKVSCKASGGTFSRYAISWVRQAPGQGLEWMGGIIPIFGTSNYAQKFQGRVTIKADESTSTAYMELSSLRSEDTAVYYCARGGNSWTTSLYYYGMDVWGQGTTVTVSS
VL: B3 VL with H38Q, G41E, F71Y, Y96L, Q100G, L104V
B16: P1-047299 (antibody, V domains shown)
VH: QVQLVQSGAEVKKPGSSVKVSCKASGGTFNRYAFSWVRQAPGQGLEWMGGIIPIFGTPNYAQKFQGRVTITADESTSTAYMELSSLISEDTAVYYCASSHFYGSGSSHFYYYGMHVWGQGTTVTVSS
VL: B3 VL with H38Q, G41E, Y96W, L104V
B17: P1-047289 (antibody, IgG1, V domains shown)
VH: QVQLVQSGAEVKKPGSSVKVSCKASGGTFSSSAISWVRQAPGQGLEWMGGIIPIFGTADSAQKFQGRVTITADESTSTAYMELNSLRSEDTAVYYCAFTPRYRGSSHHYFYALGVWGQGTTVTVSS
VL: B3 VL with H38Q, G41E, Y91F, Y96L, Q100G, L104V
B18: P1-047306 (antibody, V domains shown)
VH: QVQLVQSGAEVKKPGSSVKVSCKASGGTFSSSAISWVRQAPGQGLEWMGGIIPIFGTANYAQKFQGRVTITADESTSTAYMELSSLRSEDTAVYYCARASQSRSSNYYYYGLDVWGQGTTVTVSS
VL: B3 VL with H38Q, G41E, Y96L, Q100G, L104V
B19: P1-047263 (antibody, V domains shown)
VH: QVQLVQSGAEVKKPGASVKVSCKASGYTFPTYDINWVRQATGQGLEWMGWVNPNSGNTGYAQKFQDRVTMTRNTSISTAYMELSSLRSEDTAVYYCASDGLNMVRGVHNYYGMDVWGQGTTVTVSS
VL: B3 VL with H38Q, G41E, Y96P
B20: P1-047246 (antibody, V domains shown)
VH: QVQLQESGPGLVKPSETLSLTCTVSGGSITNYYWTWIRQPPGKGLEWIGYIYDSGYTNYNPSLKSRVTLSIDTSKNQFSLKLSSVTAADTAVYYCARGVLWFGELLPLLDYWGQGTLVTVSS
VL: B1 VL with I96Y, R103K
B21: P1-047334 (antibody, IgG1, V domains shown)
VH: QVQLVQSGAEVKRPGSSVKVSCKASGGTFSSSAISWVRQAPGQGLEWMGGIIPIFGTTNGAQKFQGRVTITADESTSTAYMELSSLRSEDTAVYYCAAMVRGNYFYFYGMDVWGQGTTVTVSS
VL: B1 VL with D50A, E55Q, F91Y, I96L, Q100G, R103K, L104V
B22: P1-047239 (antibody, V domains shown)
VH: QVQLVESGGGVVQPGRSLRLSCAATEFTFSNYGMHWVRQAPGKGLEWVAVIWYDGSNKYYADSVKGRFTISRDNSKNTLYLQLNSLSAEDSAVYYCARDGRHYYGSTSYFGMDVWGQGTTVTVSS
VL: B1 VL with I96Y, R103K

The chains behind the UniProt entries cited, without tags or fusion partners. Residues count along the entry.
UniProt Q9NP99, 21-234 limits assumed: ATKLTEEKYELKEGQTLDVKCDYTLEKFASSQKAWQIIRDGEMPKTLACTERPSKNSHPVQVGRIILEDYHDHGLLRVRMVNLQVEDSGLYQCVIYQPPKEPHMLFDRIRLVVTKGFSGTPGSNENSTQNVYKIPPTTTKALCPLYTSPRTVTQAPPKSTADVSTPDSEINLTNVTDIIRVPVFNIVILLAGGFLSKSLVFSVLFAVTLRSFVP

target: T1, human TREM-1 (triggering receptor expressed on myeloid cells 1), isoform 1 (human, UniProt Q9NP99 21-234); assay: FACS competition with labelled mAb 170 on Jurkat cells expressing huTREM1
T1 construct: also called huTREM1; CD354

| Binder | binding result |
| --- | --- |
| B1 | binds |
| B2 | binds |
| B3 | binds |
| B4 | binds |
| B5 | binds |
| B6 | binds |
| B7 | binds |
| B8 | binds |
| B9 | binds |
| B10 | binds |
| B11 | binds |
| B12 | binds |
| B13 | binds |
| B14 | binds |
| B15 | binds |
| B16 | binds |
| B17 | binds |
| B18 | binds |
| B19 | binds |
| B20 | binds |
| B21 | binds |
| B22 | binds |

— patent US20220332817A1 (Bristol-Myers Squibb, published 2022)
